± gives the expanded uncertainty stated by the source.
Experiments:
[1] = Crystal; DTA
[2] = Molar enthalpy of transition or fusion; details: Crystal; DSC

- Normal melting temperature [1]: 113.06 ± 0.45 °C
- Molar enthalpy of transition or fusion [2]: 51.6 ± 1.3 kJ/mol
SMILES: O=C(O)CCCCCCCCCCCC(=O)O [tridecanedioic acid]
